{"sequences": {"note": "Sequences of proteins named here, by UniProt entry; tags and fusion partners are left off. Residues count along the entry.", "UniProt P35563, 24-483": "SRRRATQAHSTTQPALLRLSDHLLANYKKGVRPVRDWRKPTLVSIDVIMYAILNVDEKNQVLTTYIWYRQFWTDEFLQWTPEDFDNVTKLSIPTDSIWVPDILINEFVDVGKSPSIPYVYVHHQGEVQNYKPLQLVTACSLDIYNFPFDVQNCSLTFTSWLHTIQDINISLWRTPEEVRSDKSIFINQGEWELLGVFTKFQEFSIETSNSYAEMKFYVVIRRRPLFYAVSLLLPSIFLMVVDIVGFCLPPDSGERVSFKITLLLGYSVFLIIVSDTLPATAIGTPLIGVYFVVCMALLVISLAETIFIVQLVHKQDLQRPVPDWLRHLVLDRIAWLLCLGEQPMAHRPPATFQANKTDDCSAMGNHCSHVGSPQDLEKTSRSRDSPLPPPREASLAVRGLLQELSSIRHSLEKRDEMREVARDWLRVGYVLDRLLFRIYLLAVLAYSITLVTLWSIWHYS"}, "source": "patent US5604245A", "about": "“Use of 4-amino-1-(2-pyridyl)piperidines for the preparation of a medicament for the treatment of conditions deriving from disorders of the serotoninergic systems mediated by 5-HT3 receptors” (priority 1991, dated 1997)", "target": "5-HT3 receptors (Rattus norvegicus, UniProt P35563)", "test": "biochemical", "format": "binding", "design": "the cortical tissue from 4 animals was homogenized in 20 volumes of HEPES; from tissue; host or cells: cerebral cortical membranes of male rats (about 200 g)"}
{"smiles": "NCCc1c[nH]c2ccc(O)cc12", "note": "[serotonin]", "values": [{"measurement": "Ki", "value": 1200, "unit": "nM"}]}
